Laboratory results published in publication PMC7961094 (The Journal of Biological Chemistry, 2021).

Chains of the proteins cited; added tags and fusions are not shown. Residues count along the entry.
UniProt Q9GZT9, 181-426: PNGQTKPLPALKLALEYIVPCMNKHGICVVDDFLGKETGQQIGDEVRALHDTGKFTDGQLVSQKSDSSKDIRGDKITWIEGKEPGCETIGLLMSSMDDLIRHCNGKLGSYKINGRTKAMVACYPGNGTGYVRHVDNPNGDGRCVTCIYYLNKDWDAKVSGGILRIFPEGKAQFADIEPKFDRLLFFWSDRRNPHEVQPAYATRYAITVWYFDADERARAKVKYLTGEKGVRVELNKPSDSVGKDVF

Biological target: PHD2_181-426 (Homo sapiens, UniProt Q9GZT9)
Test: 2,4-DNPH α-KG assay with PHD2
Method: During the course of the reaction, 50 μl was withdrawn at various time points from the reaction tube and quenched in 50 μl of 10% TCA at predetermined time points and vortexed.
Subsequent measurements were performing at time points conforming to those requirements. Initial velocities at each substrate concentration were fit using linear regression to generate Michaelis–Menten titration curves.
All data were plotted using GraphPad Prism 8.0 and presented as a mean ± standard deviation of three independent biological replicates, unless otherwise stated. For kinetic data, Km was determined by fitting the data to a least squares ordinary fit Michealis–Menten function, while IC50 values were obtained from fitting the data to a three-parameter log(inhibitor) versus response function. Where applicable, two-tailed t tests were performed to determine statistical significance using a p-value of 0.05.

IC50: 808 nM
Structure (SMILES): O=C(O)CNC(=O)c1ncc(-c2cccc(Cl)c2)cc1O [Vadadustat]
